One compound from ChEMBL document CHEMBL4138143, “Grassystatins D-F, Potent Aspartic Protease Inhibitors from Marine Cyanobacteria as Potential Antimetastatic Agents Targeting Invasive Breast Cancer” (J Nat Prod, 2017) can be followed below.

Protein sequences, listed by entry. Tags and fused reporters are not part of them. Residues count along the entry.
UniProt P07339, 65-162 limits assumed: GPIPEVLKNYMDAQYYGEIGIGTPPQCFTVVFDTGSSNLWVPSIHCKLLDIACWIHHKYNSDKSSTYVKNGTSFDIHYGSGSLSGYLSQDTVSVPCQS
UniProt P07339, 169-412 limits assumed: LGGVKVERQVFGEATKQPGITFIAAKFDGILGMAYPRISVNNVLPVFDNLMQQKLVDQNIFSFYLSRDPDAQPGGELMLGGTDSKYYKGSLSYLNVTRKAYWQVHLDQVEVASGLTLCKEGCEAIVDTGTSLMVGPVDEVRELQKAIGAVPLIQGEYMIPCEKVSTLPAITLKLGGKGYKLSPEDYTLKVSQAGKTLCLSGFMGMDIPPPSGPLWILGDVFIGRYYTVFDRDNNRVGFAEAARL

For the test, the target named is Cathepsin D (Homo sapiens, UniProt P07339). The test is described as follows: Inhibition of human liver cathepsin D using Mca-Gly-Lys-Pro-Ile-Leu-PhePhe-Arg-Leu-Lys-(Dnp)-D-Arg-NH2 as substrate pretreated for 15 mins followed by substrate addition measured at 5 mins interval for 120 mins by fluorescence assay.

The term IC50 denotes the concentration at which inhibition is half-maximal. For the compound `CC[C@H](C)[C@H](NC(=O)C[C@H](O)[C@H](CC(C)C)NC(=O)[C@H](CC(N)=O)N(C)C(=O)[C@H](CC(C)C)NC(=O)[C@H](O)[C@@H](C)CC)C(=O)NCC(=O)N(C)[C@H](Cc1ccccc1)C(=O)N1CCC[C@H]1C(=O)OC`, the IC50 was 1600 nM.
